Laboratory results as given in paper PMC2009863, “Pharmacokinetic considerations in testing hypoxic cell radiosensitizers in mouse tumours” (British Journal of Cancer, 1979).
Where “and” joins values, the source holds several entries; their conditions need not be identical. Identical values can stand only once.

Legend:
EMT6/St/lu tumour = experiment: Radiosensitization of hypoxic tumour cells in vivo, cell survival after 1750 rad; design: species or system mouse; conditions: 2.5 mmol/kg, kidney ligation No
From the text: (§1) Several groups are now pursuing such a goal (Adams, 1977; Brown et al., 1978; Wardman, 1977). […] Specifically the two ques- tions were: (a) How much does the plasma half-life affect the peak plasma level? (b) How much does the plasma half-life affect the tumour/plasma ratio of drug concentrations? MATERIALS AND METHODS A description of the procedures for implanta- tion of tumours, and irradiation and assay of the viability of the tumour cells has been published previously (Brown, 1975). Brieflv, the EMT6/St/lu tumour was transplanted into 3-month-old, syngeneic BALB/c female mice, weighing 20-25 g, and irradiated at a diameter of 6-7 mm. Immediately after irradiation the tumours were removed and minced. The only modification was that the single-cell suspensions were prepared by a 30 min disaggregation using an enzyme "'cock- tail" of 0-05% pronase, 0.02% DNAase and 21 0 02% collagenase (Brown et al., in prepara- tion). Cell viability was assayed by plating appropriate dilutions of the tumour cells into Waymouth's medium containing 15% foetal calf serum in polystyrene Petri dishes, and counting colonies 13 days later. […] Plasma (or whole blood) and tumour levels of 2-nitroimidazoles were determined in different ways in the two laboratories rep- resented.

mice = experiment: Acute toxicity LD50/2d of MIS and Ro-05-9963; conditions: normal mice
From the text: as §1

[1] = Plasma and tumour levels of total 2-nitroimidazoles, UV spectrophotometric assay at 318 nm, EMT6 tumour-bearing mice, normal or bilateral kidney ligation; conditions: for Tumour/Plasma: individual mice
From the text: Several groups are now pursuing such a goal (Adams, 1977; Brown et al., 1978; Wardman, 1977). […] Specifically the two ques- tions were: (a) How much does the plasma half-life affect the peak plasma level? (b) How much does the plasma half-life affect the tumour/plasma ratio of drug concentrations? MATERIALS AND METHODS A description of the procedures for implanta- tion of tumours, and irradiation and assay of the viability of the tumour cells has been published previously (Brown, 1975). Brieflv, the EMT6/St/lu tumour was transplanted into 3-month-old, syngeneic BALB/c female mice, weighing 20-25 g, and irradiated at a diameter of 6-7 mm. Immediately after irradiation the tumours were removed and minced. The only modification was that the single-cell suspensions were prepared by a 30 min disaggregation using an enzyme "'cock- tail" of 0-05% pronase, 0.02% DNAase and 21 0 02% collagenase (Brown et al., in prepara- tion). Cell viability was assayed by plating appropriate dilutions of the tumour cells into Waymouth's medium containing 15% foetal calf serum in polystyrene Petri dishes, and counting colonies 13 days later. […] Bilateral kidney ligation was performed on anaesthetized mice by exteriorizing the kidneys through a 1 cm incision in the skin and abdominal wall and tying a ligature around the renal artery and vein at the renal pelvis. The abdominal incision, which was adjoining and parallel to the line of attach- ment of the abdominal wall with the dorsal muscles, was then closed tightly with 4 or 5 stitches, and the skin incision closed with metal clips. The sham operation was identical in all respects except for ligation of the renal artery and vein. […] Plasma (or whole blood) and tumour levels of 2-nitroimidazoles were determined in different ways in the two laboratories rep- resented.

[2] = 38 min after injection, normal mice, equimolar doses
[3] = Table II, 5 mmol/kg, BKL No, 38 min after injection
[4] = Table II, 5 mmol/kg, BKL Yes, 38 min after injection
[5] = Table II, 5 mmol/kg, BKL Yes, 6 h after injection

O=[N+]([O-])c1nccn1CC(O)CO (centres unmarked) [Ro-05-9963, 1-(2-nitroimidazol-1-yl)-2,3-pro-pandiol]
Survival ratio (drug-injected / saline-injected) (EMT6/St/lu tumour): 0-102 | acute LD50 relative to that of MIS (mice): twice | LD50/2d (and 95% confidence intervals) (mice; Stanford, same experiment): 3104 (2212-4355) mg/kg | plasma level relative to MIS [1, 2]: less than 50% | tumour level relative to MIS [1, 2]: less than 50% | tumour/plasma ratio ([1]; EMT6 tumour, both normal and kidney-ligated mice): 50-70% and 60-70% | Tumour/Plasma ([1]; Table I, 5 mmol/kg i.p., 30 min after inj.): 0-46 | Tumour/Plasma ([1]; Table I, 5 mmol/kg i.p., 37.5 min after inj.): 0-66 and 0-72 | Tumour/Plasma ([1]; Table I, 5 mmol/kg i.p., 45 min after inj.): 0-51 and 0-66 and 0-62 | Tumour/Plasma, Mean [1, 3]: 0-71 | Tumour/Plasma, Mean [1, 4]: 0-61 | Tumour/Plasma, Mean [1, 5]: 0-60 | Tumour/Plasma [1, 3]: 0-57 and 0-49 and 1-22 and 0-60 and 0-67 and 0-71 | Tumour/Plasma [1, 4]: 0-85 and 0-66 and 0-80 and 0-47 and 0-55 | Tumour/Plasma [1, 5]: 0-36 and 0-90 and 0-50 and 0-62 | peak tumour levels relative to equimolar injected doses of MIS ([1]; normal mice, EMT6 tumour): ≤ 50% | peak plasma concentration relative to equimolar injected dose of MIS ([1]; normal mice, Fig. 1): ~50%
